Experimental data: patent US20040110170A1, “Cloning and characterization of calcitonin gene related peptide receptors” (priority 2002, published 2004)

Key:
[1] = test system: NIH/3T3 untransfected control cells; assay: Radioligand Binding Inhibition assay (125I-CGRP), untransfected control cells; details: untransfected NIH/3T3 control cells
[2] = test system: NIH/3T3 untransfected control cells; assay: Adenylate Cyclase Stimulation assay (cAMP), untransfected control cells; format: cell-based; details: untransfected NIH/3T3 control cells
Protocol: The cells were washed with 1 ml of a nutrient deficient DMEM solution (Gibco-BRL, Gaithersburg, Md.) to remove excess radioisotope and incubated for 10 minutes (37° Celsius). The wash solution was removed and 500 μL of a DMEM solution containing 1 mg/ml BSA and 2.5 mM 3-isobutyl, 1-methylxanthine (IBMX) was added to each well. Peptide was added in 5 μL aliquots to 21 of the 24 wells with three receiving no peptide to serve as a baseline for stimulation. The remaining 21 wells were incubated at 37° Celsius with increasing concentrations of the indicated peptide and the response was measured. Following a one hour incubation, each well received 100 μL of a 2% SDS, 1 mM cAMP solution to lyse the cells. cAMP was assayed by consecutive Dowex AG-50W-X4 resin (BioRad, Richmond, Calif.) and aluminum oxide (Sigma, St. Louis, Mo.) column chromatography. Finally, 4 mL of a 10% imidazole solution eluted the contents into scintillation vials where (^3H) cAMP was measured using a Beckman Liquid Scintillation Counter (Fullerton, Calif.).

CC(C)C[C@H](NC(=O)CNC(=O)[C@H](C)NC(=O)[C@H](CC(C)C)NC(=O)[C@H](CCCNC(=N)N)NC(=O)[C@H](Cc1c[nH]cn1)NC(=O)[C@@H](NC(=O)[C@@H](NC(=O)[C@@H]1CSSC[C@H](NC(=O)[C@H](C)N)C(=O)N[C@@H](CC(=O)O)C(=O)N[C@@H]([C@@H](C)O)C(=O)N[C@@H](C)C(=O)N[C@@H]([C@@H](C)O)C(=O)N1)C(C)C)[C@@H](C)O)C(=O)N[C@@H](CC(C)C)C(=O)N[C@@H](CO)C(=O)N[C@@H](CCCNC(=N)N)C(=O)N[C@@H](CO)C(=O)NCC(=O)NCC(=O)N[C@H](C(=O)N[C@H](C(=O)N[C@@H](CCCCN)C(=O)N[C@@H](CC(N)=O)C(=O)N[C@@H](CC(N)=O)C(=O)N[C@@H](Cc1ccccc1)C(=O)N[C@H](C(=O)N1CCC[C@H]1C(=O)N[C@H](C(=O)N[C@@H](CC(N)=O)C(=O)N[C@H](C(=O)NCC(=O)N[C@@H](CO)C(=O)N[C@@H](CCCCN)C(=O)N[C@@H](C)C(=O)N[C@@H](Cc1ccccc1)C(N)=O)C(C)C)[C@@H](C)O)C(C)C)C(C)C)C(C)C [CGRP]
inhibition of 125I-CGRP binding [1]: lack of binding inhibition
cAMP stimulation [2]: lack of cAMP stimulation
